The source of these data is patent US20090030039A1, “Piperidine Derivatives as Cxcr3 Receptor Antagonists” (priority 2006, published 2009).

The chains behind the UniProt entries cited, without tags or fusion partners.
UniProt P49682, whole entry: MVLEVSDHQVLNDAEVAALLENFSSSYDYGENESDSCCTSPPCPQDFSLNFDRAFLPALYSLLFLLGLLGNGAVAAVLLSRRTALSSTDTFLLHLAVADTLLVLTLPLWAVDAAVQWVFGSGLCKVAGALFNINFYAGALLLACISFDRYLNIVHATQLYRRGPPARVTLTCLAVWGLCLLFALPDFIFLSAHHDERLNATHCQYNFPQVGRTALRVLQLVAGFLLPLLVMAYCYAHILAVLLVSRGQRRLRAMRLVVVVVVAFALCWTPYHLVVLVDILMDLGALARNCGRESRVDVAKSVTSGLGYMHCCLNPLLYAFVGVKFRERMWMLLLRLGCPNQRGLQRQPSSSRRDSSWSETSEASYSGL

Structures are written as SMILES.

As usually defined, the pIC50 is the IC50 on a negative log10 scale, so that one unit is a factor of ten. The low end stands for a large IC50, the high end for a small IC50.

The test addresses human CXCR3 (Homo sapiens, UniProt P49682). The test is described as follows: [35S]GTPγS exchange assay, CXCR3 receptor inhibition (hI-TAC-induced GTPγS-binding). The following applies: -log IC50 (molar) inhibiting 50% of specific I-TAC-induced GTPγS-binding; membranes of human CXCR3-transfected CHO cells.
On to `O=C1CCC(c2ccc(F)cc2)(C2CCN(Cc3cc4cc(Br)ccc4o3)CC2)CN1` (racemic), for which the pIC50 turned out to be 5.5. `O=C1CCC(c2ccncc2)(C2CCN(Cc3ccc(Br)cc3F)CC2)C(=O)N1` (racemic) displayed a pIC50 of 5.7. To `O=C1CCC(c2ccncc2)(C2CCN(Cc3ccc(Cl)c(C(F)(F)F)c3)CC2)C(=O)N1` (racemic) belongs 5.4; to `O=C1CCC(c2ccncc2)(C2CCN(Cc3ccc(Cl)cc3Cl)CC2)C(=O)N1` (racemic), 5.8; to `O=C1CCC(c2ccncc2)(C2CCN(Cc3ccc(F)c(Cl)c3)CC2)C(=O)N1` (racemic), 5.4.

Turning to `O=C1CCC(c2ccncc2)(C2CCN(Cc3ccc(OC(F)(F)F)cc3)CC2)C(=O)N1` (racemic), the pIC50 is recorded as 5.7.
